Target: human SphK1 (Homo sapiens, UniProt Q9NYA1)
Test: Sphingosine kinase assay, recombinant human SphK1, γ-[32P]ATP
Details: compounds at 0.3 μM, triplicate; 5 μM sphingosine, 250 μM γ-[32P]ATP

The chains behind the UniProt entries cited, without tags or fusion partners.
UniProt Q9NYA1, whole entry: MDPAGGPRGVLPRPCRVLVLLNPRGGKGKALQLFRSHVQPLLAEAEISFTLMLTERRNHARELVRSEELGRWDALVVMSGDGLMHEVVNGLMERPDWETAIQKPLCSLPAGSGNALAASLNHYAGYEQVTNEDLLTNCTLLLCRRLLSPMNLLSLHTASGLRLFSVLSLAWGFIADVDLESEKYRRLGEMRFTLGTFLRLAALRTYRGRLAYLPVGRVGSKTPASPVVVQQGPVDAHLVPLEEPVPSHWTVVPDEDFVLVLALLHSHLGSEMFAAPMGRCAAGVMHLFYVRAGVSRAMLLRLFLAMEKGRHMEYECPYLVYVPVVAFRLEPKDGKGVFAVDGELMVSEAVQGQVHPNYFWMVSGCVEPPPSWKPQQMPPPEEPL

(S)-amino(2-((3-(4-((4-(benzofuran-2-yl)thiazol-2-yl)amino)phenyl)-1,2,4-oxadiazol-5-yl)methyl)pyrrolidin-1-yl)methaniminium chloride [Compound 20ee]
hSphK1 (SphK activity, % control, no inhibitor added): 68 ±7 % control
